Assay [1] concerns tryptamine-induced bilateral tonic seizures. Description: tryptamine (TRY) test in rats (combined APO-TRY-NOR test). The conditions noted are these: rat, s.c., tryptamine 40 mg/kg i.v. 90 min after compound; for ED50 (TRY): Table 1.
The subject of assay [2] is apomorphine-induced emesis. Kind of assay: apomorphine test in dogs (APO-dog). In kind it is in vivo, beagle dogs. The note with it: apomorphine 0.31 mg/kg s.c. 1 hour after compound; for ED50 (APO)-dog: Table 2, s.c. per method; for ED50 (APO)dog: Table 1.
The test system of assay [3] is apomorphine-induced agitation and stereotypic chewing. Kind of assay: apomorphine (APO) test in rats (combined APO-TRY-NOR test). The conditions noted are these: s.c., apomorphine hydrochloride 1.25 mg/kg i.v. 30 min after compound.
Where [4] appears, read: Table 1, dose protecting 50% of animals.

Bounds are passed on as bounds.

Turning to `CC(C#N)CN1CN(c2ccc(F)cc2)C2(CCN(C3CCC(C#N)(c4ccc(F)cc4)CC3)CC2)C1=O` (single isomer, unassigned), in assay [1] (Table 2), the “ED50 -(TRY)” value was found to be 0.31 mg/kg. Further, the “ED50 (APO)-dog” value in assay [2] stood at 0.0005 mg/kg. Further, the “ED50 (APO)-rat” value in assay [3] (Table 2) came out at 0.16 mg/kg.
On to `CC(C)N1CN(c2ccc(F)cc2)C2(CCN(C3CCC(C#N)(c4ccc(F)cc4)CC3)CC2)C1=O` (centres unmarked), for which, in assay [1] (Table 2), the “ED50 -(TRY)” value was less than 10 mg/kg. Besides, the “ED50 (APO)-dog” value in assay [2] is 0.001 mg/kg. Also, the “ED50 (APO)-rat” value in assay [3] (Table 2) is less than 10 mg/kg.
Consider `N#CC1(c2ccc(Cl)cc2)CCC(N2CCC3(CC2)C(=O)NCN3c2ccccc2)CC1` (centres unmarked), for which the “ED50 (APO)dog” value in assay [2] (s.c.) is 0.007 mg/kg. Besides, the “ED50 (APO)-rat” value in assay [3] (setting [4]) was found to be 5.0 mg/kg.
Turning to `CN(C)C(=O)CN1CN(c2ccc(F)cc2)C2(CCN(C3CCC(C#N)(c4ccc(F)cc4)CC3)CC2)C1=O` (single isomer, unassigned), the “ED50 -(TRY)” value in assay [1] (Table 2) is recorded as less than 2.5 mg/kg. Besides, the “ED50 (APO)-dog” value in assay [2] was 0.001 mg/kg. Further, the “ED50 (APO)-rat” value in assay [3] (Table 2) is listed as less than 2.5 mg/kg.
Regarding `CCOC(=O)C1(c2ccc(F)cc2)CCC(N2CCC3(CC2)C(=O)NCN3c2ccccc2)CC1` (centres unmarked), the “ED50 (TRY)” value in assay [1] is 2.5 mg/kg. Besides, the “ED50 (APO)dog” value in assay [2] (s.c.) was determined as 0.007 mg/kg.
As for `N#CC1(c2ccccc2)CCC(N2CCC3(CC2)C(=O)NCN3c2ccccc2)CC1` (single isomer, unassigned), the “ED50 (TRY)” value in assay [1] is reported as 2.0 mg/kg. Besides, the “ED50 (APO)dog” value in assay [2] (s.c.) is on record as 0.00063 mg/kg. For the same compound, the “ED50 (APO)-rat” value in assay [3] (setting [4]) came to 0.08 mg/kg.
As to `CCOC(=O)C1(c2ccc(F)cc2)CCC(N2CCC(n3c(=O)[nH]c4ccccc43)CC2)CC1` (centres unmarked), in assay [1] (Table 3), the “ED50 -(TRY)” value was 5 mg/kg. Moreover, in assay [2] (Table 3, s.c.), the “ED50 -(APO)-dog” value is on record as 0.04 mg/kg.
Regarding `COC(=O)CC(C)N1CN(c2ccc(F)cc2)C2(CCN(C3CCC(C#N)(c4ccc(F)cc4)CC3)CC2)C1=O` (single isomer, unassigned), the “ED50 -(TRY)” value in assay [1] (Table 2) is recorded as 10 mg/kg. Besides, the “ED50 (APO)-dog” value in assay [2] came out at 0.002 mg/kg. The “ED50 (APO)-rat” value in assay [3] (Table 2) is on record as 5 mg/kg.
In the case of `COC(=O)C(C)CN1CN(c2ccc(F)cc2)C2(CCN(C3CCC(C#N)(c4ccc(F)cc4)CC3)CC2)C1=O` (single isomer, unassigned), the “ED50 -(TRY)” value in assay [1] (Table 2) is recorded as less than 10 mg/kg. For the same compound, the “ED50 (APO)-dog” value in assay [2] is 0.001 mg/kg. The “ED50 (APO)-rat” value in assay [3] (Table 2) is less than 10 mg/kg.
Take `N#CC1(c2ccc(F)cc2)CCC(N2CCC3(CC2)C(=O)N(CC(N)=O)CN3c2ccc(F)cc2)CC1` (single isomer, unassigned): the “ED50 (APO)-dog” value in assay [2] worked out at 0.0009 mg/kg.
With `N#CC1(c2ccc(F)cc2)CCC(N2CCC3(CC2)C(=O)N(Cc2ccccc2)CN3c2ccc(F)cc2)CC1` (centres unmarked), the “ED50 (APO)-dog” value in assay [2] was 0.008 mg/kg.
On to `N#CC1(c2ccccc2)CCC(N2CCC3(CC2)C(=O)NCN3c2ccccc2)CC1` (centres unmarked), for which the “ED50 (APO)dog” value in assay [2] (s.c.) was determined as 0.001 mg/kg. For the same compound, in assay [3] (setting [4]), the “ED50 (APO)-rat” value is on record as less than 10 mg/kg.
As to `COC1(c2ccc(F)cc2)CCC(N2CCC3(CC2)C(=O)NCN3c2ccc(F)cc2)CC1` (centres unmarked), the “ED50 (TRY)” value in assay [1] is 5 mg/kg.
Turning to `CCCCOC(=O)C1(c2ccc(F)cc2)CCC(N2CCC3(CC2)C(=O)NCN3c2ccc(F)cc2)CC1` (centres unmarked), in assay [2] (s.c.), the “ED50 (APO)dog” value was determined as 0.008 mg/kg. Besides, the “ED50 (APO)-rat” value in assay [3] (setting [4]) is reported as 10 mg/kg.
Take `CNC(=O)CN1CN(c2ccc(F)cc2)C2(CCN(C3CCC(C#N)(c4ccc(F)cc4)CC3)CC2)C1=O` (single isomer, unassigned): the “ED50 -(TRY)” value in assay [1] (Table 2) was 5 mg/kg. Further, in assay [2], the “ED50 (APO)-dog” value amounted to 0.0016 mg/kg.
As for `CN1CN(c2ccc(F)cc2)C2(CCN(C3CCC(C#N)(c4ccc(F)cc4)CC3)CC2)C1=O` (centres unmarked), in assay [1] (Table 2), the “ED50 -(TRY)” value was determined as 0.08 mg/kg. Moreover, the “ED50 (APO)-dog” value in assay [2] came out at 0.001 mg/kg. For the same compound, the “ED50 (APO)-rat” value in assay [3] (Table 2) was found to be 0.04 mg/kg.
Consider `COc1ccc(C2(C#N)CCC(N3CCC4(CC3)C(=O)NCN4c3ccccc3)CC2)cc1` (centres unmarked), for which, in assay [2] (s.c.), the “ED50 (APO)dog” value turned out to be 0.002 mg/kg. Moreover, the “ED50 (APO)-rat” value in assay [3] (setting [4]) is 10 mg/kg.
For the compound `CCCOC(=O)C1(c2ccc(F)cc2)CCC(N2CCC3(CC2)C(=O)NCN3c2ccc(F)cc2)CC1` (centres unmarked), in assay [1], the “ED50 (TRY)” value was 10 mg/kg. Further, the “ED50 (APO)dog” value in assay [2] (s.c.) was 0.008 mg/kg. In assay [3] (setting [4]), the “ED50 (APO)-rat” value is on record as 5 mg/kg.
As to `N#CC1(c2ccc(F)cc2)CCC(N2CCC3(CC2)C(=O)NCN3c2ccccc2)CC1` (centres unmarked), in assay [2] (s.c.), the “ED50 (APO)dog” value is given as 0.0005 mg/kg. Further, the “ED50 (APO)-rat” value in assay [3] (setting [4]) came to 0.16 mg/kg.
Consider `CCOC(=O)C1(c2ccccc2)CCC(N2CCC3(CC2)C(=O)NCN3c2ccc(F)cc2)CC1` (centres unmarked), for which the “ED50 (TRY)” value in assay [1] came out at 5 mg/kg. Moreover, the “ED50 (APO)dog” value in assay [2] (s.c.) is listed as 0.009 mg/kg. In addition, the “ED50 (APO)-rat” value in assay [3] (setting [4]) came to 1.25 mg/kg.
Take `COC(=O)CCN1CN(c2ccc(F)cc2)C2(CCN(C3CCC(C#N)(c4ccc(F)cc4)CC3)CC2)C1=O` (single isomer, unassigned): the “ED50 -(TRY)” value in assay [1] (Table 2) is recorded as 10 mg/kg. In assay [2], the “ED50 (APO)-dog” value was 0.002 mg/kg.
Turning to `CCOC(=O)C1(c2ccccc2)CCC(N2CCC(n3c(=O)[nH]c4ccccc43)CC2)CC1` (centres unmarked), in assay [1] (Table 3), the “ED50 -(TRY)” value amounted to 5 mg/kg. Besides, the “ED50 (APO)-rat” value in assay [3] (Table 3) was found to be 1.25 mg/kg.
For `CCOC(=O)C1(c2ccc(F)cc2)CCC(N2CCC3(CC2)C(=O)NCN3c2ccc(F)cc2)CC1` (centres unmarked), the “ED50 (TRY)” value in assay [1] was found to be 5 mg/kg. The “ED50 (APO)dog” value in assay [2] (s.c.) was found to be 0.003 mg/kg. Also, the “ED50 (APO)-rat” value in assay [3] (setting [4]) came to 2.5 mg/kg.
Turning to `CC(=O)C1(c2ccc(F)cc2)CCC(N2CCC3(CC2)C(=O)NCN3c2ccc(F)cc2)CC1` (centres unmarked), the “ED50 (APO)-rat” value in assay [3] (setting [4]) turned out to be 2.5 mg/kg.
As to `N#CCCN1CN(c2ccc(F)cc2)C2(CCN(C3CCC(C#N)(c4ccc(F)cc4)CC3)CC2)C1=O` (centres unmarked), the “ED50 (APO)-dog” value in assay [2] is 0.0005 mg/kg. The “ED50 (APO)-rat” value in assay [3] (Table 2) was determined as 0.16 mg/kg.

The values are drawn from patent publication US4329353A (priority 1981, dated 1982).
